Data set [1] is described as follows: physchem.
Data set [2] in a line: physchem. The source holds these as a separate data set.

In data set [1], `CN1CC[C@]23c4c5ccc(O[C@@H]6O[C@H](C(=O)O)[C@@H](O)[C@H](O)[C@H]6O)c4O[C@H]2[C@@H](O)C=C[C@H]3[C@H]1C5` [MORPHINE 3-GLUCURONIDE] yielded a pKa of 2.86.
Consider `CN1CC[C@]23c4c5ccc(O)c4O[C@H]2[C@@H](O[C@@H]2O[C@H](C(=O)O)[C@@H](O)[C@H](O)[C@H]2O)C=C[C@H]3[C@H]1C5` [MORPHINE GLUCURONIDE], for which the results for the pKa in data set [1] and in data set [2] were 2.77 and 8.22, respectively.

Broadly, the pKa is the negative logarithm of the acid dissociation constant. Low values mean a group that gives up its proton readily, high ones a group that holds its proton tightly.

These data come from ChEMBL document CHEMBL1129378, “Octanol-, chloroform-, and propylene glycol dipelargonat-water partitioning of morphine-6-glucuronide and other related opiates” (J Med Chem, 1996).
